Protein sequences, listed by entry. Tags and fused reporters are not part of them.
UniProt Q99720, whole entry: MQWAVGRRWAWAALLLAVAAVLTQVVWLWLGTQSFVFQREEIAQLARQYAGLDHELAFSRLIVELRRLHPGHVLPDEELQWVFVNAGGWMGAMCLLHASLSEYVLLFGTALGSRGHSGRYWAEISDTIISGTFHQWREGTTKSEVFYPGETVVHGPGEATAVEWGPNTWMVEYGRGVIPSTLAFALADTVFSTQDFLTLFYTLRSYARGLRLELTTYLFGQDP

In ChEMBL document CHEMBL1148440, “4-(tetralin-1-yl)- and 4-(naphthalen-1-yl)alkyl derivatives of 1-cyclohexylpiperazine as sigma receptor ligands with agonist sigma2 activity” (J Med Chem, 2004):

Molecular target: Sigma non-opioid intracellular receptor 1 (Homo sapiens) (UniProt Q99720)
Experiment: Binding affinity ratio of sigma 1 receptor to that of sigma 2 receptor
Method in brief: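 Sigma-1 binding used guinea pig brain membranes without cerebellum with (+)-[3H]pentazocine. […] IC50 came from 6–9 drug concentrations in two or three experiments with duplicate samples, then converted to apparent Ki. Ratios are computed from these Ki values.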

Ratio: 2
SMILES: Oc1cccc2c1CCCC2CCCN1CCN(C2CCCCC2)CC1 (stereo unspecified)
